# PubChem BioAssay AID1446 (The Scripps Research Institute Molecular Screening Center, 2008)
# Only a part is listed here, and it is no random draw. Activity calls are given as the source filed them.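 Rule for the calls: active = inhibition above the campaign mean plus 3 SD over all tested compounds (cut at about 24% in these data); inactive = the rest.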
# Test: viability loss in Ba/F3 EpoR-JAK2V617F cells – cell-based, luminescence, JAK2V617F inhibitor project, primary screen (AID 1446);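 note: cytokine-independent growth of Ba/F3 cells driven by EpoR plus mutant JAK2; 0% = DMSO-treated cells and 100% = JAK inhibitor I control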
# Details: ATP luminescence, at 5.6 µM, active compounds read high
row,Compound,inhibition
1,COc1ccc(OP(C)(=O)Nc2ccccn2)cc1 (stereo not drawn),inactive: -0.06%
2,CN(C)CCOC(=O)C(O)(c1ccccc1)C1CCCC1 (stereo not drawn),inactive: -1.61%
3,COc1ccccc1OP(C)(=O)Nc1ccc(Br)cc1 (stereo not drawn),inactive: -0.55%
4,CP(=O)(Nc1ccccn1)Oc1ccccc1 (stereo not drawn),inactive: 0.33%
5,COc1ccccc1OP(C)(=O)Nc1ccc(C)cc1C (stereo not drawn),inactive: -0.61%
6,CCc1ccc(OP(C)(=O)O)cc1,inactive: 2.28%
7,Cc1c(NP(C)(=O)Oc2ccc(C(C)C)cc2)c(=O)n(-c2ccccc2)n1C (stereo not drawn),inactive: -1.8%
8,O=[N+]([O-])c1cc([N+](=O)[O-])c(Nc2ccccn2)c([N+](=O)[O-])c1,inactive: -1.46%
9,COc1ccccc1OP(C)(=O)Nc1ccc(C)c(C)c1 (stereo not drawn),inactive: -2.79%
10,COc1ccc(OP(C)(=O)Nc2ccccc2Br)cc1 (stereo not drawn),inactive: 1.9%
11,Cc1cc(C)cc(OP(C)(=O)Nc2cccc(C(F)(F)F)c2)c1 (stereo not drawn),inactive: -1%
12,CP(=O)(Nc1ccc(Cl)cc1Cl)Oc1ccccc1 (stereo not drawn),inactive: 0.85%
13,CP(=O)(OCCOc1ccccc1)OCCOc1ccccc1,inactive: 1.66%
14,Cc1nc2ccc3ccccc3c2o1.O=[N+]([O-])c1cc([N+](=O)[O-])c(O)c([N+](=O)[O-])c1,inactive: -1.45%
15,CCOC(=O)c1ccc(NP(C)(=O)Oc2ccc(Cl)cc2)cc1 (stereo not drawn),inactive: 0.47%
16,CP(=O)(OC12CC3CC(CC(C3)C1)C2)OC12CC3CC(CC(C3)C1)C2,inactive: 1.88%
17,COc1ccccc1OP(C)(=O)Nc1c(C)n(C)n(-c2ccccc2)c1=O (stereo not drawn),inactive: 4.44%
18,O=C(OCCCN1CCCC1)C(O)(c1ccccc1)C1CCCCC1 (stereo not drawn),inactive: 2.26%
19,CP(=O)(Oc1ccccc1)N1CCOC1=O (stereo not drawn),inactive: -0.15%
20,CCc1ccc(OP(C)(=O)Nc2cccnc2)cc1 (stereo not drawn),inactive: -3.87%
21,CCN(CC)CC(O)COC(=O)C(O)(c1ccccc1)C1CCCCC1 (stereo not drawn),inactive: -0.71%

row,Compound,inhibition
1,COc1ccc(OP(C)(=O)Nc2ccc(Br)cc2)cc1 (stereo not drawn),inactive: -0.47%
2,CN(C)C(=O)c1c([N+](=O)[O-])cc([N+](=O)[O-])cc1[N+](=O)[O-],inactive: 2.02%
3,COc1ccccc1OP(C)(=O)Nc1ccccc1Br (stereo not drawn),inactive: -4.8%
4,CC(C)(C)c1ccc(OP(C)(=O)O)cc1,inactive: -1.44%
5,CP(=O)(Nc1ccc(Cl)cc1)Oc1ccc(F)cc1 (stereo not drawn),inactive: 0.36%
6,CCOP(C)(=S)SCC(=O)NC(C)(CC)C(=O)O (stereo not drawn),inactive: 0.27%
7,CP(=O)(Nc1ccc(SC(F)(F)F)cc1)Oc1ccc(F)cc1 (stereo not drawn),inactive: -3.19%
8,Cc1ccccc1NP(C)(=O)Nc1ccccc1C,inactive: -3.89%
9,CP(=O)(Nc1ccc2c(c1)OCCO2)Oc1ccccc1 (stereo not drawn),inactive: 0.66%
10,CN(C)CCOC(=O)C(O)(c1ccccc1)C1CCCCC1 (stereo not drawn),inactive: 4.59%
11,COc1ccc(NP(C)(=O)Oc2ccccc2OC)cc1 (stereo not drawn),inactive: 0.47%
12,COc1ccc(OP(C)(=O)Nc2cccc(Br)c2)cc1 (stereo not drawn),inactive: -1.97%
13,O=[N+]([O-])c1ccc(OP2(=O)COCCO2)cc1 (stereo not drawn),inactive: 0.1%
14,O=[N+]([O-])c1cc([N+](=O)[O-])c(NCC2CCS(=O)(=O)C2)c([N+](=O)[O-])c1 (stereo not drawn),inactive: 3.49%
15,Cc1cc(-c2cccc3ccccc23)c(C)cn1.O=[N+]([O-])c1cc([N+](=O)[O-])c(O)c([N+](=O)[O-])c1,inactive: -0.91%
16,CCOC(=O)c1ccc(NP(C)(=O)Oc2ccc(F)cc2)cc1 (stereo not drawn),inactive: 1.77%
17,COc1ccc(OP(C)(=O)Nc2ccc(SC(F)(F)F)cc2)cc1 (stereo not drawn),inactive: -4%
18,CP(=O)(Nc1ccccc1)Oc1ccc(F)cc1 (stereo not drawn),inactive: -1.75%
19,CCCCCOc1ccc(NP(C)(=O)Oc2ccc(Cl)cc2Cl)cc1 (stereo not drawn),inactive: 0.07%
20,CCN(CC)CCCOC(=O)C(O)(c1ccccc1)C1CCCCC1 (stereo not drawn),inactive: 3.56%
21,CP(=O)(Nc1ccccc1F)Oc1ccccc1 (stereo not drawn),inactive: -0.54%

row,Compound,inhibition
1,CC(C)c1ccc(OP(C)(=O)Nc2ccc(SC(F)(F)F)cc2)cc1 (stereo not drawn),inactive: -0.83%
2,O=C(OC1CN2CCC1CC2)c1ccc([N+](=O)[O-])cc1 (stereo not drawn),inactive: -0.49%
3,O=C(OCCN1CCN(CCOCc2ccccc2)CC1)C(O)(c1ccccc1)c1ccccc1,inactive: 0.04%
4,CCOC(=O)c1ccc(NP(C)(=O)Oc2cc(C)cc(C)c2)cc1 (stereo not drawn),inactive: -0.83%
5,Cc1cc(C)cc(OP(C)(=O)Nc2ccc(C)cc2C)c1 (stereo not drawn),inactive: 2.32%
6,COc1ccccc1OP(C)(=O)Nc1cccc(Br)c1 (stereo not drawn),inactive: 4.49%
7,Cc1ccc(C)c(NP(C)(=O)Oc2ccccc2)c1 (stereo not drawn),inactive: -0.42%
8,Cc1cc(C)cc(OP(C)(=O)Nc2ccccn2)c1 (stereo not drawn),inactive: -1.04%
9,CP(=O)(Nc1cccc(Br)c1)Oc1ccccc1 (stereo not drawn),inactive: -1.78%
10,O=C(O)c1cccc(Nc2c([N+](=O)[O-])cc([N+](=O)[O-])cc2[N+](=O)[O-])c1,inactive: -0.91%
11,CC1=NCCc2c1[nH]c1ccccc21.O=[N+]([O-])c1cc([N+](=O)[O-])c(O)c([N+](=O)[O-])c1,inactive: 4.34%
12,O=[N+]([O-])c1cc([N+](=O)[O-])c(Nc2nnnn2CCO)c([N+](=O)[O-])c1,inactive: -3.44%
13,CCOC(=O)C(CC)C1=NC(C)(C)Cc2ccccc21.O=[N+]([O-])c1cc([N+](=O)[O-])c(O)c([N+](=O)[O-])c1 (stereo not drawn),inactive: -0.96%
14,CCCOc1ccc(NP(C)(=O)Oc2ccc(Cl)cc2)cc1 (stereo not drawn),inactive: -1.61%
15,CP(=O)(Nc1ccc(SC(F)(F)F)cc1)Oc1ccccc1 (stereo not drawn),inactive: -2.72%
16,COc1ccccc1OP(C)(=O)Nc1c(C)cccc1C (stereo not drawn),inactive: 2.79%
17,CN1CCCCC1COC(=O)C1(O)c2ccccc2CCc2ccccc21 (stereo not drawn),inactive: -4.82%
18,O=[N+]([O-])c1cc([N+](=O)[O-])c(-n2nnc3ccccc32)c([N+](=O)[O-])c1,inactive: 2.42%
19,Cc1nc2ccc3ccccc3c2s1.O=[N+]([O-])c1cc([N+](=O)[O-])c(O)c([N+](=O)[O-])c1,inactive: -0.19%
20,CP(=O)(NC(=O)Nc1ccccc1)Oc1ccccc1 (stereo not drawn),inactive: 1.67%
21,CCc1ccc(OP(C)(=O)N2CCN(c3ccc([N+](=O)[O-])cc3)CC2)cc1 (stereo not drawn),inactive: 2.17%

row,Compound,inhibition
1,Cc1cc(C)cc(OP(C)(=O)Nc2ccc(SC(F)(F)F)cc2)c1 (stereo not drawn),inactive: 5.25%
2,Cc1cccc(C)c1OP(C)(=O)Nc1ccc(SC(F)(F)F)cc1 (stereo not drawn),inactive: -3.26%
3,CP(=O)(Nc1ccc(SC(F)(F)F)cc1)Oc1ccc(Cl)cc1 (stereo not drawn),inactive: 1.26%
4,CP(=O)(Oc1ccccc1)OC(c1ccccc1)C(F)(F)F (stereo not drawn),inactive: -0.53%
5,CP(=O)(Nc1ccccn1)Oc1ccc(Cl)cc1 (stereo not drawn),inactive: -2.21%
6,CCOC(=O)c1ccc(NP(C)(=O)Oc2ccc(OC)cc2)cc1 (stereo not drawn),inactive: 0.57%
7,CCOP(C)(=S)SCC(=O)NC(C)C(=O)O (stereo not drawn),inactive: 3.93%
8,CP(=O)(Nc1ccccc1Br)Oc1ccccc1 (stereo not drawn),inactive: 1.54%
9,COc1ccccc1OP(C)(=O)Nc1ccccc1 (stereo not drawn),inactive: -0.71%
10,CP(=S)(Nn1cnnc1)Oc1ccccc1 (stereo not drawn),inactive: 1.4%
11,O=[N+]([O-])c1ccc2c(c1)C=Nc1ccccc1O2,inactive: -0.25%
12,CC(C)(C)c1ccc(OP(C)(=O)Nc2ccc(SC(F)(F)F)cc2)cc1 (stereo not drawn),inactive: 1.24%
13,Cc1cccc(C)c1OP(C)(N)=O (stereo not drawn),inactive: 0.77%
14,Cc1cc(C)cc(OP(C)(N)=O)c1 (stereo not drawn),inactive: 3.59%
15,COc1ccccc1OP(C)(=O)Nc1cc(Cl)ccc1C (stereo not drawn),inactive: 0.86%
16,COc1ccc(OP(C)(=O)Nc2cccc(F)c2)cc1 (stereo not drawn),inactive: -2.93%
17,COc1ccccc1OP(C)(=O)Nc1ccc(C)cc1 (stereo not drawn),inactive: -0.88%
18,Cc1ccc(NP(C)(=O)Oc2ccccc2)c(C)c1 (stereo not drawn),inactive: -4.87%
19,CCOC(=O)c1ccc(NP(C)(=O)Oc2ccccc2)cc1 (stereo not drawn),inactive: -3.07%
20,CCN(CC)CCCOC(=O)C(O)(c1ccccc1)c1ccccc1,inactive: 0.26%
